Results on 1 molecule are retold here after PubChem BioAssay AID485297 (National Center for Advancing Translational Sciences (NCATS), 2010).

Only a part is listed here, and it is no random draw. Records with an inconclusive call do not appear. Calls of active or inactive are those of the source. The call rests on the fitted dose curve; in most records, active means well fitted activation curve with a large enough effect; inconclusive means small, poorly fitted or top-dose-only effect; inactive means no such curve, though single readings can be large or run the other way.

This experiment can be described thus: qHTS Assay for Rab9 Promoter Activators. Further: % of control where 0% means no effect; nearly all actives have a fitted effect of over 60% in size. The settings on record: Huh7 Rab9 promoter-luciferase reporter, luminescence, 24 h; at 9.22 µM (top of the series). For orientation: In qHTS, concentration-response curves come from the screen itself.
Turning to `Cc1ccccc1CN(C)C(=O)COC(=O)C(O)(c1ccccc1)c1ccccc1`, the activation, negative = inhibition was inactive: -2.34%.
